Results reported in patent US20240254119A1 (THIRD HARMONIC BIO, INC., priority 2022, published 2024).

Sequences of proteins named here, by UniProt entry; tags and fusion partners are left off. Residues count along the entry.
UniProt P08183, whole entry: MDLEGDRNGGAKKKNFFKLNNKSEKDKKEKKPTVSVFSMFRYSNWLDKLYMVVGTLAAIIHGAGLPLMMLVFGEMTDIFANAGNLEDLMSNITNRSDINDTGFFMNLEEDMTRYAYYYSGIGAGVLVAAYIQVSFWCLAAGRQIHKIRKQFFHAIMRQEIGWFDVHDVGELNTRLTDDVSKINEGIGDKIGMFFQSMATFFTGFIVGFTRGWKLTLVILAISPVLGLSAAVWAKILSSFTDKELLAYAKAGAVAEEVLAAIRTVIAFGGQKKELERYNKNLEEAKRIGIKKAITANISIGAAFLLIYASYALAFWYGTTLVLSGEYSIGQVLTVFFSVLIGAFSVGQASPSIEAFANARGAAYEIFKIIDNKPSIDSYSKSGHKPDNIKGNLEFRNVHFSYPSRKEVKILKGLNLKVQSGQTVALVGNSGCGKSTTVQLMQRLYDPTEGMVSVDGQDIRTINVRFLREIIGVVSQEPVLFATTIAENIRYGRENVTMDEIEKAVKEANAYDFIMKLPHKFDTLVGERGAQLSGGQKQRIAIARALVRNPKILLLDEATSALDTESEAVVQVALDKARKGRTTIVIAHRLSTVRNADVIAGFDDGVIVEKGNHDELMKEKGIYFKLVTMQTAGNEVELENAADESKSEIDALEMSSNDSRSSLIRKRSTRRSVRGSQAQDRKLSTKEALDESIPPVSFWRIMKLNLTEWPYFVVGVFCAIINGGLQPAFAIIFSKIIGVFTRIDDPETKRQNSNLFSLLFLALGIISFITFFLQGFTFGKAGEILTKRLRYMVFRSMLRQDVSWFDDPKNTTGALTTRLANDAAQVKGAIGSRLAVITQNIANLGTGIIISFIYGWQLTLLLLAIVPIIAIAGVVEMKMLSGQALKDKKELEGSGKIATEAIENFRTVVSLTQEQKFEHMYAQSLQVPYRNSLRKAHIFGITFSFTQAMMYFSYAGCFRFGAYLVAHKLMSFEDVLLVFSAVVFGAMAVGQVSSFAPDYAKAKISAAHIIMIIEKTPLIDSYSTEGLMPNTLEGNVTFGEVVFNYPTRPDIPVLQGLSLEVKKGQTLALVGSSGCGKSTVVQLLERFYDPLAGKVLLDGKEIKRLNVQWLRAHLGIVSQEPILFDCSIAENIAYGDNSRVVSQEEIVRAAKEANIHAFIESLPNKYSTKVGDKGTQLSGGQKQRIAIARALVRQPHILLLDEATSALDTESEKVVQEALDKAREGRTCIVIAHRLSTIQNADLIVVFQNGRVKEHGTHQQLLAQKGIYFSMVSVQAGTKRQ
UniProt P16234, 24-1089 limits assumed: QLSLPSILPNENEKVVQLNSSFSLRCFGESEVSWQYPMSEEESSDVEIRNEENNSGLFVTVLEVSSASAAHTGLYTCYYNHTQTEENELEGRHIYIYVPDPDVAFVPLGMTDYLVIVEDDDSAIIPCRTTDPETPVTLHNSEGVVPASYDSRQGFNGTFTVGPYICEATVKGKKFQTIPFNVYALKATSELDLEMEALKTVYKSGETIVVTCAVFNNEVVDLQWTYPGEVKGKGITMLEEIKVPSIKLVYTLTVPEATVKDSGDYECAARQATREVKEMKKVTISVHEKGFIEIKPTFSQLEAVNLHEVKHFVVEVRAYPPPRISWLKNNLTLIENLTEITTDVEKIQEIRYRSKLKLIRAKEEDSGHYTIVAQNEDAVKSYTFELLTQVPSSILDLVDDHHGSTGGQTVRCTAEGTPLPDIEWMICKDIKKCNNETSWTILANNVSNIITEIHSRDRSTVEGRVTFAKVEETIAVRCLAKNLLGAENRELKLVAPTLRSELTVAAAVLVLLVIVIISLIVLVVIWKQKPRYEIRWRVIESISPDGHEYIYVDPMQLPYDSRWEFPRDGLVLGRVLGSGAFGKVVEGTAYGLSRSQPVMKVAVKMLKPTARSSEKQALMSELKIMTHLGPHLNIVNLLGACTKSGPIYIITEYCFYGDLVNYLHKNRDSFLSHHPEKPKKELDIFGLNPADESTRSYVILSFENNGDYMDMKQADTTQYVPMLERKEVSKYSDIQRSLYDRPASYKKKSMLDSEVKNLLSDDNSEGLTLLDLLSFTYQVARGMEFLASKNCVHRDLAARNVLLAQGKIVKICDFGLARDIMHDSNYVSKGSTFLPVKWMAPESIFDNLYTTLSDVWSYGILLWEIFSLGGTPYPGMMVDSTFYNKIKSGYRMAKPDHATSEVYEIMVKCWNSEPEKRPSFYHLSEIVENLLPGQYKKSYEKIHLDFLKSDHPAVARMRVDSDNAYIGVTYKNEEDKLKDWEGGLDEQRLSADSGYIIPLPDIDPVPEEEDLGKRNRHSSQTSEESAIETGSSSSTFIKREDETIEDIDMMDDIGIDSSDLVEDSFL
UniProt Q9UNQ0, whole entry: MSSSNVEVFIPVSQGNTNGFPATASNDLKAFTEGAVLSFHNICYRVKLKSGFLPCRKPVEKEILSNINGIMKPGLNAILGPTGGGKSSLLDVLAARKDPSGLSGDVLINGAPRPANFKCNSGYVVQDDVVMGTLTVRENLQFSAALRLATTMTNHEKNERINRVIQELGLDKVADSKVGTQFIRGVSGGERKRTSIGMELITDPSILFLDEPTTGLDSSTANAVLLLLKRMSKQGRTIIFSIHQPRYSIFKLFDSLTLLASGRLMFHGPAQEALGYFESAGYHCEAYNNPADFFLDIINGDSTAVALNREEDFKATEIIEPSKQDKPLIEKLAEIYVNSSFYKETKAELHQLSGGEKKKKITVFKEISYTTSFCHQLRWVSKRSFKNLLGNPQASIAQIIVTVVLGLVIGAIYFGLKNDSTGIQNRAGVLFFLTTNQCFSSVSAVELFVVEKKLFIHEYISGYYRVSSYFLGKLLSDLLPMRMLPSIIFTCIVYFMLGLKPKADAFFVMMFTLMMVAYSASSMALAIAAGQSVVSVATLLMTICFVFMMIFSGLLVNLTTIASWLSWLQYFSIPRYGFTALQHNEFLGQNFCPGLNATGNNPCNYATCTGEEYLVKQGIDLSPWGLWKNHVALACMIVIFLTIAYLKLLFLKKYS
UniProt P10721, 26-976 limits assumed: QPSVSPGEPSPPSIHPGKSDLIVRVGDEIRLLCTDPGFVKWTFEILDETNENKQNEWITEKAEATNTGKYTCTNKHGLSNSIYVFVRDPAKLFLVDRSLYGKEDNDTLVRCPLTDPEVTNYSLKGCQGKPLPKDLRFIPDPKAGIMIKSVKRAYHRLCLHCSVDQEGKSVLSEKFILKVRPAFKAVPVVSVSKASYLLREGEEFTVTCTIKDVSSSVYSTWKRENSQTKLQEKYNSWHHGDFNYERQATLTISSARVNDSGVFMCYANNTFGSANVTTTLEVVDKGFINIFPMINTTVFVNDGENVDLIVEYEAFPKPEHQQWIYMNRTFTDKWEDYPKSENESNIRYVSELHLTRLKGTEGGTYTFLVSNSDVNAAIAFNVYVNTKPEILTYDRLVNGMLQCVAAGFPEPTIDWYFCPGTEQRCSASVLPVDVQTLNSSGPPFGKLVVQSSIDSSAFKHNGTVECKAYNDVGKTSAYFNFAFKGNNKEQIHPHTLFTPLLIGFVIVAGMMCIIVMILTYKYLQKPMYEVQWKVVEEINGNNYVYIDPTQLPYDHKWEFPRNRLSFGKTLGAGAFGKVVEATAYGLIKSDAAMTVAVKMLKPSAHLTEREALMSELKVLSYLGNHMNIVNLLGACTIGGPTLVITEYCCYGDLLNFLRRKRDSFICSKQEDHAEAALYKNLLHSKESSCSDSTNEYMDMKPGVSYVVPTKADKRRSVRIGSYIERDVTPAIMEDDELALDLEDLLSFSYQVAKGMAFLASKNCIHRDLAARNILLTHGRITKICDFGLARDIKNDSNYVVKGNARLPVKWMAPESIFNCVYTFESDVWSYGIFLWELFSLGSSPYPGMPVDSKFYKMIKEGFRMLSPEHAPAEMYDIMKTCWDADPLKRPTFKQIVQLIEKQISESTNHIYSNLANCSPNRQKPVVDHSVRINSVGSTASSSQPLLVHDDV
UniProt P07333, 20-972 limits assumed: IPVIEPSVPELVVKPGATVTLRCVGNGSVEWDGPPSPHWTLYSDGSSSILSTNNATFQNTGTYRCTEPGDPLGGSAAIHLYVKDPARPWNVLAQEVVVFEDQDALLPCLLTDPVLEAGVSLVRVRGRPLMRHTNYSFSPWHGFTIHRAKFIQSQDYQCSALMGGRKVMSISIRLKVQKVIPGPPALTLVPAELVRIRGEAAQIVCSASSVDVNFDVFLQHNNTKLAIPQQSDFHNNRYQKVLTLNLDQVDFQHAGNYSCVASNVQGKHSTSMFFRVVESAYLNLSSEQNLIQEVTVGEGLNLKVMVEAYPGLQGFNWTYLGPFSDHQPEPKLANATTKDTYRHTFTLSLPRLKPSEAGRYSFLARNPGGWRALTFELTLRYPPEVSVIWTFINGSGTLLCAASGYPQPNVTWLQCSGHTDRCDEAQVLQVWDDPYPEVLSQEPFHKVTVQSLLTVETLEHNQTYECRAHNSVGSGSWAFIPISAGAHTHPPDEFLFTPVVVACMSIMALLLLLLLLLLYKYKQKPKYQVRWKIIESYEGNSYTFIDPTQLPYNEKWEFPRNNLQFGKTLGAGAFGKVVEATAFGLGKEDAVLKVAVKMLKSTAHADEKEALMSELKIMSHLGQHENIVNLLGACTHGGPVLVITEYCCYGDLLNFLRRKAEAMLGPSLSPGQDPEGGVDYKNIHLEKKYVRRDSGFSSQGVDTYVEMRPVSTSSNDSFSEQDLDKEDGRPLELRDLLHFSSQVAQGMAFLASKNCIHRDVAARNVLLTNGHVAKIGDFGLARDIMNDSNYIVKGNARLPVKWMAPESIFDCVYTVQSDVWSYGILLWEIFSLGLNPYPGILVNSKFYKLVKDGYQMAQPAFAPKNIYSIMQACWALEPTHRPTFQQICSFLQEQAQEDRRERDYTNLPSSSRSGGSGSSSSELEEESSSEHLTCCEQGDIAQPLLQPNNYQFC

Assays:
[1] = Three time point assay for plasma, brain and testes distribution after oral dosing; conditions: rat, time point 2 h
MDR1 (MDR1-MDCKII cells) = MDR1 (MDR1-MDCKII cells) (Homo sapiens, UniProt P08183); test: Permeability in MDR1-MDCKII cells; conditions: for MDCKII-MDR1: Papp A-B: MDCKII-MDR1, apical to basolateral
PDGFRα [2] = target: T1, PDGFRα (Homo sapiens, UniProt P16234); test: Caliper biochemical assay, PDGFRα; conditions: read-out: PDGFRα Biochemical Avg IC50, Table 6
[3] = target: BCRP (BCRP-MDCKII monolayer) (Homo sapiens, UniProt Q9UNQ0); test: MDCKII-BCRP bidirectional transport assay; conditions: for MDCK-BCRP: Papp A-B: apical to basolateral
Caco-2 cells = test: Caco-2 permeability assay; conditions: for Caco-2: Papp A-B: Caco-2, apical to basolateral
CYP3A4 = test: Hepatocyte CYP induction assay, CYP3A4 gene expression; conditions: human hepatocytes, donor two
wtKIT [4] = target: T2, wtKIT (Homo sapiens, UniProt P10721); test: HTRF biochemical assay, wtKIT (phosphorylation of a peptide substrate); conditions: read-out: KIT Biochemical IC50 avg, Table 4
wtKIT [5] = target: T2, wtKIT; test: Caliper biochemical assay, wtKIT; conditions: read-out: KIT Biochemical IC50 avg, Table 6
PDGFRα [6] = target: T1, PDGFRα; test: HTRF biochemical assay, PDGFRα; conditions: read-out: PDFGRα Biochemical IC50 avg, Table 4
CSF-1R [7] = target: T3, CSF-1R (Homo sapiens, UniProt P07333); test: HTRF biochemical assay, CSF-1R; conditions: read-out: CSF-1R Biochemical IC50 avg, Table 4
CSF-1R [8] = target: T3, CSF-1R; test: Caliper biochemical assay, CSF-1R; conditions: read-out: CSF-1R Biochemical IC50, Table 6
Kinetic solubility assay = conditions: 50 mM PB (pH 7.4), shaken 24 hours at RT
[9] = system: KIT phosphorylation in M-07e cells; test: Cell-based KIT phosphorylation in M-07e cells by pKIT ELISA; conditions: read-out: M-07e pKIT IC50, SCF stimulation

Structure (SMILES)	Brain concentration [1] [ng/g]	Kp brain/plasma [1]	Kp testes/plasma [1]	Plasma concentration [1] [ng/mL]	Testes concentration [1] [ng/g]	MDCKII-MDR1: Efflux Ratio (MDR1 (MDR1-MDCKII cells))	MDCKII-MDR1: Papp A-B (MDR1 (MDR1-MDCKII cells))	IC50 (PDGFRα [2]) [nM]	MDCK-BCRP: Efflux Ratio [3]	MDCK-BCRP: Papp A-B [3]	Caco-2: Efflux Ratio (Caco-2 cells)	Caco-2: Papp A-B (Caco-2 cells)	CYP 3A4 induction mRNA: Mean fold at 10 μM (CYP3A4)	IC50 (wtKIT [4]) [nM]	IC50 (wtKIT [5]) [nM]	IC50 (PDGFRα [6]) [nM]	IC50 (CSF-1R [7]) [nM]	IC50 (CSF-1R [8]) [nM]	Solubility (μM) (Kinetic solubility assay)	IC50 [9] [nM]
COc1ccn2c(C(=O)Nc3cc(-c4noc(C5CC5F)n4)ccc3C)cnc2c1 (centres unmarked)	4470	0.5	0.36	8980	3240	0.64	14.8 10^−6 cm/s	50 to 500	0.92	12.6 10^−6 cm/s	0.68	15.9 10^−6 cm/s	+++ (induction fold of greater than 3-fold to less than or equal to 10-fold)	< 50	< 50	50 to 500	< 50	< 50	**** (a solubility less than or equal to 2 μM)	< 50
Cc1ccc(-c2noc(C[C@@H](C)O)n2)cc1NC(=O)c1cnc2ccccn12						1.9	14.3 10^−6 cm/s	500 to 5000	14.8	2.22 10^−6 cm/s	1.87	6.65 10^−6 cm/s	+ (induction fold of less than or equal to 2-fold)	50 to 500	< 50	5000 to 30000	500 to 5000	50 to 500	* (a solubility greater than 50 μM)	< 50
